Measurements reported in patent publication US10927111B2, “Inhibitors of RAF kinases” (Kinnate Biopharma Inc., priority 2019, dated 2021).

The chains behind the UniProt entries cited, without tags or fusion partners.
UniProt P04049, whole entry: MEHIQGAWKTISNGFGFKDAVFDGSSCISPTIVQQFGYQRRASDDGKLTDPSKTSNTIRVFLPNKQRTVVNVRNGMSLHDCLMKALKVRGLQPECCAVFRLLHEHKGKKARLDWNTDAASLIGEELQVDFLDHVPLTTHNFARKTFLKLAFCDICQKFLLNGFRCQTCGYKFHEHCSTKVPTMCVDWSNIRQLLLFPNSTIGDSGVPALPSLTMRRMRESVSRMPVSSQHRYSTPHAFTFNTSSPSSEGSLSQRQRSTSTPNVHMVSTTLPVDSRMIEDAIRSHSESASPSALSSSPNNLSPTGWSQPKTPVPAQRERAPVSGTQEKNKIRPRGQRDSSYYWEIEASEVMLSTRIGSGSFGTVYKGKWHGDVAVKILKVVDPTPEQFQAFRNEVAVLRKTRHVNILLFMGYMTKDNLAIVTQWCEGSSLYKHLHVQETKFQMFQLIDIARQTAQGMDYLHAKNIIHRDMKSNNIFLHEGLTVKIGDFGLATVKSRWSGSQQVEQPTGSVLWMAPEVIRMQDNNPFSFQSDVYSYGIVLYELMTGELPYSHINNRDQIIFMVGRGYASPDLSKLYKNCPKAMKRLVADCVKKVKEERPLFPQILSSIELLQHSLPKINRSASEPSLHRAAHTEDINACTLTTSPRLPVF

Target: human RAF1 (Homo sapiens (Human), UniProt P04049)
Assay: Protein kinase assay (radiometric 33P-ATP, MEK1 (K97R) substrate)
Conditions: read-out: RAF-1 IC50; human MEK1 (K97R) substrate 3 micromolar, ATP 10 micromolar, 10-dose IC50 mode
Protocol: Protein kinase assay: Assay platform was used to measure kinase/inhibitor interactions as described previously (Anastassiadis et al., 2011). In brief, for each reaction, kinase and substrate were mixed in a buffer containing 20 mM HEPES (pH 7.5), 10 mM MgCl2, 1 mM EGTA, 0.02% Brij35, 0.02 mg/mL BSA, 0.1 mM Na3VO4, 2 mM DTT, and 1% DMSO. All compounds were solubilized in DMSO. Compounds were then added to each reaction mixture via acoustic dispense using an ECHO 550 nanoliter dispenser. For human RAF1 testing, human MEK1 (K97R) was used as a substrate at a concentration of 3 micromolar, with a final ATP concentration of 10 micromolar. For human BRAF testing, human MEK1 (K97R) was used as a substrate at 1 micromolar concentration, with a final ATP concentration of 25 micromolar. Compounds were tested in 10-dose IC50 mode with a 3-fold serial dilution starting at 10 micromolar. After a 20-min incubation, ATP (Sigma-Aldrich, St. Louis, Mo. 63178) and [g33P] ATP (specific activity 10 microCi/microliter) purchased at PerkinElmer (Boston, Mass., 02118 Cat #BLU 003H250UC) were added at a final total concentration of 10 mM. […] The percent remaining kinase activity relative to a vehicle-containing (DMSO) kinase reaction was calculated for each kinase/inhibitor pair. IC50 values were calculated using Prism 5 (GraphPad).

With `CNc1ncc2cc(-c3cc(NC(=O)N4CC[C@H](OC(F)(F)F)C4)c(F)cc3C)c(C)nc2n1` the IC50 was < 0.01 µM.
